In ChEMBL document CHEMBL2396646, “N-Acyl-N'-arylpiperazines as negative allosteric modulators of mGlu1: identification of VU0469650, a potent and selective tool compound with CNS exposure in rats” (Bioorg Med Chem Lett, 2013):

Columns and labels:
Homo sapiens [1] = organism: Homo sapiens; assay: Selectivity ratio of mGluR8 (unknown origin) to human mGluR1
Homo sapiens [2] = organism: Homo sapiens; assay: Selectivity ratio of mGluR6 (unknown origin) to human mGluR1
Homo sapiens [3] = organism: Homo sapiens; assay: Selectivity ratio of mGluR7 (unknown origin) to human mGluR1
Homo sapiens [4] = organism: Homo sapiens; assay: Selectivity ratio of mGluR4 (unknown origin) to human mGluR1
Homo sapiens [5] = organism: Homo sapiens; assay: Selectivity ratio of mGluR5 (unknown origin) to human mGluR1
Homo sapiens [6] = organism: Homo sapiens; assay: Selectivity ratio of mGluR2 (unknown origin) to human mGluR1
Homo sapiens [7] = organism: Homo sapiens; assay: Selectivity ratio of mGluR3 (unknown origin) to human mGluR1
[8] = Selectivity ratio of IC50 for rat mGluR5 to IC50 for human mGluR1

Compound	Selectivity ratio (Homo sapiens [1])	Selectivity ratio (Homo sapiens [2])	Selectivity ratio (Homo sapiens [3])	Selectivity ratio (Homo sapiens [4])	Selectivity ratio (Homo sapiens [5])	Selectivity ratio (Homo sapiens [6])	Selectivity ratio (Homo sapiens [7])	Ratio IC50 [8]
C[C@@H]1CN(c2cccnc2C#N)CCN1C(=O)C12CC3CC(CC(C3)C1)C2	100	100	100	100	100	100	100	–
C[C@@H]1CN(C(=O)C23CC4CC(CC(C4)C2)C3)CCN1c1ccccn1	–	–	–	–	–	–	–	> 60
C[C@@H]1CN(c2ccccn2)CCN1C(=O)C12CC3CC(CC(C3)C1)C2	–	–	–	–	–	–	–	> 60
